{"source": "patent US20240058288A1", "about": "“DRUG COCKTAIL FOR TREATMENT OF PARKINSON'S DISEASE, LEWY BODY DISEASE AND MULTIPLE SYSTEM ATROPHY” (ALETA NEUROSCIENCE, LLC, priority 2021, published 2024)", "system": "human dopaminergic neurons (iCell DopaNeurons)", "assay": "MPP+-induced neurotoxicity: neurite outgrowth (neurite length, branch points) of iCell DopaNeurons, Incucyte", "type": "cell-based", "source_text": "We conducted an in vitro study of the drugs in Table 1 to evaluate the neuroprotective effects of 44 conditions of treatment (Table 2, experiments 1-41; 51-53) against MPP+-induced neurodegeneration toxicity on human dopaminergic neurons (iCell® DopaNeurons: iPS cell-derived human midbrain floorplate dopaminergic neurons). Further combinations (Table 2, experiments 42-50 and Table 3) are also disclosed.\niCell DOPA neurons are neural floor plate-derived midbrain dopaminergic neurons generated from human induced pluripotent stem cells (iPSCs). […]\nThree different measurements were made in the experiments. […] Experimental conditions were measured relative to the results of healthy cells in the studies. […]\nFor the evaluation of conditions 1-28, Neurite outgrowth was followed for subsequent 48 hours using an Incucyte Zoom platform with one phase contrast image every 4 hours, using a 20× objective. After 48 hours, the medium containing test compounds and MPP+ was removed and replaced by fresh medium containing a fluorescent cytolysis marker (red fluorescence) and a live cell marker (green fluorescence). […]\nAssay endpoints and data analysis. Phase contrast images were analyzed at each time point to determine the neurite length and number of branch points per mm^2. […]"}
{"smiles": "COc1cc2nc(N3CCN(C(=O)C4CCCO4)CC3)nc(N)c2cc1OC", "note": "(centres unmarked) [TZ, Terazosin]", "values": [{"measurement": "Neurite length - Baseline-corrected AUC (0-72 h), Mean", "value": 661, "unit": "mm/mm^2"}, {"measurement": "Number of branch points per mm^2 - Baseline-corrected AUC (0-72 h), Mean", "value": 15987.1, "unit": "per mm^2"}]}
